Measured values taken from patent US20230390223A1, “ADMINISTRATION OF […] COMPOSITIONS FOR TREATING NERVOUS SYSTEM DISORDERS” (PaxMedica, Inc., priority 2020, published 2023).

Tests used:
Format in all cases: in vivo
[1] = test system: B6.129P2-Fmr1tm1Cgr/J transgenic (TG) mice; experiment: Light/dark preference test (LDT), anxiety-like behavior, SmartCage
Excerpt: The light/dark preference test (LDT) is one of the most widely used tests in pharmacology to measure unconditioned anxiety-like behavior in mice. The test is based on the natural aversion of mice to brightly illuminated areas and on their spontaneous exploratory behavior in response to a novel environment and light. See, Takao, K., et al., Light/dark Transition Test for Mice. J. Vis. Exp. (1), e104, doi:10.3791/104 (2006).
This study used a SmartCage™ system, which is an automated non-invasive rodent behavioral monitoring system which enables biomedical researchers to conduct a variety of neurobehavioral assays through consistent and accurate monitoring of rodent home cage activity and behavior. See, Xie X. S. et al. (2012) Rodent Behavioral Assessment in the Home Cage Using the SmartCage™™ System. In: Chen J., Xu X M., Xu Z., Zhang J. (eds) Animal Models of Acute Neurological Injuries II. Springer Protocols Handbooks. Humana Press, Totowa, NJ.
• 1. N=6 mice per group. • 2. All behavioral testing included a group of untreated wild type controls. • 3. Dosing for the various groups were as follows: • a. […] Group 2: IP saline, […], administered weekly to animals beginning at 9 weeks of age and continuing for four weeks (i.e. given at Age Weeks 9, 10, 11 and 12). • c. […] Groups 6-8: • Group 6: Compound A-804598 (purchased from Tocris), a selective P2X7 antagonist, dosed at 30 mg/kg/day by intraperitoneal injection, starting 7 days prior to the behavioral testing, and continuing through the completion of all experiments. • Group 7: Tangeretin (Sigma), a selective P2Y2 antagonist, dosed at 10 mg/kg/day by intraperitoneal injection, starting 7 days prior to the behavioral testing, and continuing through the completion of all experiments. The drug can be prepared in saline, with 10% Cremophore EL (Sigma) and 10% DSMO. • Group 8: Emodin (Sigma), a selective P2X7 antagonist, dosed by oral gavage at 20 mg/kg, in combination with Piperine (Sigma), dosed by oral gavage at 20 mg/kg, both administered twice per day, starting 7 days prior to the behavioral testing, and continuing through the completion of all experiments. • 1. Behavioral tests for all groups (Groups 1-5) began the following day after the last day of IN dosing (Weeks 13-14 of age). • 2. […]
Male B6.129P2-Fmr1tm1Cgr/J TG mice were purchased from Jackson Laboratories, Bar Harbor, Maine. […] Body weights of all mice were recorded for health monitoring purposes.
Dosing was carried out over the course of 28 days as instructed by the study sponsor. • 1. […] Anxiety-like behavior is assessed based on the SmartCage™ monitoring of time spent in the Light Zone, the number of Light Zone entries, and % Time Spent in the Light Zone. • 5. […]

[2] = test system: B6.129P2-Fmr1tm1Cgr/J transgenic (TG) mice; experiment: Locomotor activity test, SmartCage ~24 h recording; conditions: A-804598 IP 30 mg/kg/day, tangeretin IP 10 mg/kg/day, versus WT control group
Excerpt: The Locomotor Activity test is a means of establishing spontaneous locomotor activity, arousal, and willingness to explore in rodents. It is one of the most common rodent tests which can be used to test the effects of various medications on animal behavior in both wild type and genetically modified animals. See, Seibenhener M L, Wooten M C. Use of the Open Field Maze to measure locomotor and anxiety-like behavior in mice. J Vis Exp. 2015; (96):e52434. Published 2015 Feb. 6. doi:10.3791/52434.
This study used a SmartCage™ system, which is an automated non-invasive rodent behavioral monitoring system which enables biomedical researchers to conduct a variety of neurobehavioral assays through consistent and accurate monitoring of rodent home cage activity and behavior. See, Xie et al, 2012, (Ibid.).
Materials and Methods: Experimental Arms (Treatment Groups): • 1. N=6 mice per group. • 2. All behavioral testing included a group of untreated wild type controls. • 3. Dosing for the various groups were as follows: • a. […]
Male B6.129P2-Fmr1tm1Cgr/J TG (TG) mice were purchased from Jackson Laboratories, Bar Harbor, Maine. […] Body weights of all mice were recorded for health monitoring purposes.
Dosing was carried out over the course of 28 days as instructed by the study Sponsor. […] Day 1 to Day 2: Locomotor Activity recording is assessed using the SmartCage™ • 2. […]

[3] = test system: B6.129P2-Fmr1tm1Cgr/J transgenic (TG) mice; experiment: Step through passive avoidance test (learning and memory); conditions: 5-minute test, A-804598 IP 30 mg/kg/day, tangeretin IP 10 mg/kg/day, emodin+piperine PO 20 mg/kg each twice per day
Excerpt: The Passive Avoidance task is useful for evaluating the effect of novel chemical entities on learning and memory as well as studying the mechanisms involved in rodent models of CNS disorders. In this test, the test chamber is divided into a lighted compartment and a dark compartment, with a gate between the two. The test animals explored both compartments on the first day. The next day, they are given a mild foot shock in the dark compartment and they will learn to associate the dark compartment with the foot shock. In order to test their learning and memory, the mice are then placed back in the lighted compartment. Passive avoidance behavior of rodents is defined as the suppression of their innate preference for the dark compartment. Mice with normal learning and memory will avoid entering the dark chamber. Learning and memory from the previous day is measured by recording the latency to cross through the gate between the two compartments. See, J. David Sweatt, Chapter 4: Rodent Behavioral Learning and Memory Models, Editor: J. David Sweatt. Mechanisms of Memory (Second Edition), Academic Press, 2010, Pages 76-103, ISBN 9780123749512. […]
Male B6.129P2-Fmr1tm1Cgr/J TG (TG) mice were purchased from Jackson Laboratories, Bar Harbor, Maine. […] Body weights of all mice were recorded for health monitoring purposes. […]

[4] = 10-minute test, group regimens: A-804598 IP 30 mg/kg/day, tangeretin IP 10 mg/kg/day, emodin+piperine PO 20 mg/kg each twice per day

C[C@H](N/C(=N/C#N)Nc1cccc2ncccc12)c1ccccc1 [Formulation A-804598, N-Cyano-N″-[(1S)-1-phenylethyl]-N′-5-quinolinyl-guanidine]
percentage of time spent in the Light Zone [1, 4]: higher percentage of time spent in the Light Zone
total time spent in the light zone [1, 4]: ~8.2 min
latency for Dark Zone entry compared with other treatment groups ([1]; A-804598 IP 30 mg/kg/day, 10-minute test, FIG. 11): 4 fold
dark box (Dark Zone) entry latency ([1]; A-804598 IP 30 mg/kg/day, cutoff 600 seconds): 333.6 s
Active time [2]: greater activity compared to the WT control group
percentage of time spent in the light zone on the test day [3]: approximately 50%
total light zone time on the test day [3]: lower total time
